The source of these data is patent US12583836B2 (Anaxis Pharma Pty Ltd, priority 2020, dated 2026).

The chains behind the UniProt entries cited, without tags or fusion partners.
UniProt Q9Y572, whole entry: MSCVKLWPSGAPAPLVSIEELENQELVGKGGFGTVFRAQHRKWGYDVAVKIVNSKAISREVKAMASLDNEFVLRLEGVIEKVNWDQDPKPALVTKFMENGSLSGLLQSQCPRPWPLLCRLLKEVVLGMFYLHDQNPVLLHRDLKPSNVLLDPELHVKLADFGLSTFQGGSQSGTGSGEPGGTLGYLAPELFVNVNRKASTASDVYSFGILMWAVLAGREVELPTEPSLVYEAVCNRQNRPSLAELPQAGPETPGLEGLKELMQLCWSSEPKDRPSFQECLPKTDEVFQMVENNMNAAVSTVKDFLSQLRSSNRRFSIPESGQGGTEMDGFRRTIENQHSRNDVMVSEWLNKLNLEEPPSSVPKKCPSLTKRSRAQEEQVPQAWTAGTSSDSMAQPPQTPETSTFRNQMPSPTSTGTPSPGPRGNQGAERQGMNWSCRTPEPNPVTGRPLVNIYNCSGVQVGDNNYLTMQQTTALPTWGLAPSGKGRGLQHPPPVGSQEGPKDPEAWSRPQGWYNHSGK
UniProt Q13546, whole entry: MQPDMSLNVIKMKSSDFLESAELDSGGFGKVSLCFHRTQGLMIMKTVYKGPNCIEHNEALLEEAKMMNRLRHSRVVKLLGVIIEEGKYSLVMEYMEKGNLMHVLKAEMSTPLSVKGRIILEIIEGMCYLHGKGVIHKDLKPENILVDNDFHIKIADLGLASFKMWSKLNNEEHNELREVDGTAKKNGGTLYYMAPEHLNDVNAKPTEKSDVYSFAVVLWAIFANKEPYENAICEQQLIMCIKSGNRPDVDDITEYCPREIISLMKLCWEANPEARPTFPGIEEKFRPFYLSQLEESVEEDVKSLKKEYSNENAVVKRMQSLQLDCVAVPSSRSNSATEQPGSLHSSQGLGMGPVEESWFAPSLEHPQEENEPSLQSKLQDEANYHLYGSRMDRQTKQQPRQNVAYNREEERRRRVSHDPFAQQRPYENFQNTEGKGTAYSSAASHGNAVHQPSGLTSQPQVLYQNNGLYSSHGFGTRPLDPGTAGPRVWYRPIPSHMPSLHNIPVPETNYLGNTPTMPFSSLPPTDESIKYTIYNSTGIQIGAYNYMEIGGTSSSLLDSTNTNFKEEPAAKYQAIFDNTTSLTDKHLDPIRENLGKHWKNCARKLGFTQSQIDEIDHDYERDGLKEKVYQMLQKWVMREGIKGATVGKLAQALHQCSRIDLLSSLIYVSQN
UniProt Q8NB16, whole entry: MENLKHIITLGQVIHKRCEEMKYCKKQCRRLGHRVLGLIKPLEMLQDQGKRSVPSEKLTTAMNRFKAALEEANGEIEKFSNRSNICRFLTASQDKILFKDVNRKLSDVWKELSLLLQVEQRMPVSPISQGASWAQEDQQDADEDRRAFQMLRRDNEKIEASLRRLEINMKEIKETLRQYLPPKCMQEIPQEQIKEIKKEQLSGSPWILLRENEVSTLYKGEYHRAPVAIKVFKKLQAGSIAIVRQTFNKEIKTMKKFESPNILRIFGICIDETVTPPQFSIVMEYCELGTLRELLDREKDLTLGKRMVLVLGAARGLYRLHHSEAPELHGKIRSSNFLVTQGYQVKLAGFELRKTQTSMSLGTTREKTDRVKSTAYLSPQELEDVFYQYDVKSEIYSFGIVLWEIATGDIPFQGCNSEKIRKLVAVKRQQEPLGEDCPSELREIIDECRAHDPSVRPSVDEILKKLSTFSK

One may read the Kd as the concentration at which binding is half-saturated.

Where only a bound is given, the exact number is not on record here.

In one experiment the target is RIP3 (Homo sapiens, UniProt Q9Y572). Briefly: KINOMEscan binding assay, RIP3. The conditions noted are these: read-out: RIP3 (KD), equilibrium dissociation constant, class symbols.
Another experiment concerns the target RIP1 (Homo sapiens, UniProt Q13546). Description: KINOMEscan binding assay, RIP1. The conditions noted are these: read-out: RIP1 (KD), equilibrium dissociation constant, class symbols.
For a further experiment, the target named is MLKL (full length) (Homo sapiens, UniProt Q8NB16). Description: KINOMEscan binding assay, MLKL. The conditions noted are these: read-out: MLKL (KD), equilibrium dissociation constant, class symbols.

Regarding `CCS(=O)(=O)Nc1ccc(-c2n[nH]c(Nc3cc(C(F)(F)F)ccn3)c2C(N)=O)cc1OCc1ccc(F)cc1`, the Kd on RIP3 and at RIP1 was above 30 µM in each case.
Take `COC[C@@H](Oc1cc(-c2n[nH]c(Nc3cc(C)on3)c2C(N)=O)ccc1NS(=O)(=O)C(F)F)c1ccc(F)cc1`: the Kd was below 0.01 µM on MLKL (full length), above 30 µM on RIP3 and above 30 µM on RIP1.
